Experimental data taken from PubChem BioAssay (NCI).
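GI50 = concentration required for 50% inhibition of growth. Definition used: TGI = concentration required for complete inhibition of growth.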

What was measured:
Assay in all cases: inhibition of tumour cell growth, NCI panel, 384-well format
NCI-H322M lung = test system: NCI-H322M lung
DU-145 prostate = test system: DU-145 prostate
MALME-3M melanoma = test system: MALME-3M melanoma
SNB-19 CNS = test system: SNB-19 CNS
786-0 renal = test system: 786-0 renal
K-562 leukemia = test system: K-562 leukemia
HL-60(TB) leukemia = test system: HL-60(TB) leukemia
TK-10 renal = test system: TK-10 renal
MDA-MB-468 breast = test system: MDA-MB-468 breast
UACC-62 melanoma = test system: UACC-62 melanoma
OVCAR-3 ovarian = test system: OVCAR-3 ovarian
SF-268 CNS = test system: SF-268 CNS
PC-3 prostate = test system: PC-3 prostate
SW-620 colon = test system: SW-620 colon
SK-MEL-28 melanoma = test system: SK-MEL-28 melanoma
A549 NSCLC = test system: A549 NSCLC
RPMI-8226 leukemia = test system: RPMI-8226 leukemia
RXF 393 renal = test system: RXF 393 renal
SNB-75 CNS = test system: SNB-75 CNS
MOLT-4 leukemia = test system: MOLT-4 leukemia
ACHN renal = test system: ACHN renal
CAKI-1 renal = test system: CAKI-1 renal
SF-539 CNS = test system: SF-539 CNS
A498 renal = test system: A498 renal
T-47D breast = test system: T-47D breast
M14 melanoma = test system: M14 melanoma
NCI-H226 lung = test system: NCI-H226 lung
HCT-15 colon = test system: HCT-15 colon
MCF7 breast = test system: MCF7 breast
LOX IMVI melanoma = test system: LOX IMVI melanoma
CCRF-CEM leukemia = test system: CCRF-CEM leukemia
KM12 colon = test system: KM12 colon
HCT-116 colon = test system: HCT-116 colon
NCI-H522 lung = test system: NCI-H522 lung
BT-549 breast = test system: BT-549 breast
U251 glioblastoma = test system: U251 glioblastoma

## CN(CCCl)CCCl
NCI-H322M lung
  GI50: 21.4 µM
  TGI: 64.6 µM
DU-145 prostate
  GI50: 1.84 µM
  TGI: 4.48 µM
MALME-3M melanoma
  GI50: 1.68 µM
  TGI: 4.13 µM
SNB-19 CNS
  GI50: 9.22 µM
786-0 renal
  GI50: 3.15 µM
  TGI: 33.6 µM
K-562 leukemia
  GI50: 5.76 µM
  TGI: 58 µM
HL-60(TB) leukemia
  GI50: 0.192 µM
  TGI: 0.37 µM
TK-10 renal
  GI50: 3.56 µM
  TGI: 31.4 µM
MDA-MB-468 breast
  GI50: 0.521 µM
  TGI: 1.71 µM
UACC-62 melanoma
  GI50: 2.17 µM
  TGI: 13.5 µM
OVCAR-3 ovarian
  GI50: 2.45 µM
  TGI: 25.5 µM
SF-268 CNS
  GI50: 2.51 µM
  TGI: 24.8 µM
PC-3 prostate
  GI50: 6.59 µM
  TGI: 42.4 µM
SW-620 colon
  GI50: 1.13 µM
SK-MEL-28 melanoma
  GI50: 10.2 µM
  TGI: 22.5 µM
A549 NSCLC
  GI50: 4.33 µM
  TGI: 22.4 µM
RPMI-8226 leukemia
  GI50: 0.697 µM
  TGI: 2.36 µM
RXF 393 renal
  GI50: 1.84 µM
  TGI: 4.68 µM
SNB-75 CNS
  GI50: 9.66 µM
  TGI: 26 µM
MOLT-4 leukemia
  GI50: 0.17 µM
  TGI: 0.312 µM
ACHN renal
  GI50: 0.427 µM
  TGI: 2.24 µM
CAKI-1 renal
  GI50: 1.07 µM
  TGI: 16.3 µM
SF-539 CNS
  GI50: 1.83 µM
  TGI: 5.57 µM
A498 renal
  GI50: 13.6 µM
  TGI: 57.5 µM
T-47D breast
  GI50: 2.28 µM
M14 melanoma
  GI50: 3.89 µM
  TGI: 15.7 µM
NCI-H226 lung
  GI50: 10 µM
  TGI: 48.1 µM
HCT-15 colon
  GI50: 1.22 µM
MCF7 breast
  GI50: 4.33 µM
  TGI: 29.2 µM
LOX IMVI melanoma
  GI50: 6.73 µM
  TGI: 20.7 µM
CCRF-CEM leukemia
  GI50: 0.275 µM
  TGI: 0.626 µM
KM12 colon
  GI50: 3.4 µM
  TGI: 54.9 µM
HCT-116 colon
  GI50: 1.07 µM
NCI-H522 lung
  GI50: 1.25 µM
  TGI: 2.51 µM
BT-549 breast
  GI50: 2.08 µM
  TGI: 15.6 µM
U251 glioblastoma
  GI50: 2.24 µM
